Measured values reported in patent US20030032791A1, “Novel melanocortin-4 receptor sequences and screening assays to identify compounds useful in regulating animal appetite and metabolic rate” (priority 2000, published 2003).

By UniProt entry, the sequences of proteins in these tests, tags left out. Where a name states a change or a piece, a line headed by the entry shows the natural chain unless it says otherwise.
UniProt P41968: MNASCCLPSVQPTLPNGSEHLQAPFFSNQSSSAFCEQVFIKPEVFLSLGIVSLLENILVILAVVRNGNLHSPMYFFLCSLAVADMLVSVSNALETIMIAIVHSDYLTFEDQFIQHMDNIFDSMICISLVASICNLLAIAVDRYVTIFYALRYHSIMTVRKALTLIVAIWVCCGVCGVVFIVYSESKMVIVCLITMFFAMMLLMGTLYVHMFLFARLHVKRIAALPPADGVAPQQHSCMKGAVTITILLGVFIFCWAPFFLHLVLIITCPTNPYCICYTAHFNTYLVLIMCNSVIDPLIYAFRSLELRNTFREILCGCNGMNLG

Biological target: hMC3R (Homo sapiens, UniProt P41968)

MTII (peptide)
IC50: 4.58 nM
